Target: mouse recombinant PARP2 (Mus musculus, UniProt O88554)
Assay: biochemical

Sequences of proteins named here, by UniProt entry; tags and fusion partners are left off. A change or cut given only in a name is not applied to a line headed by its entry.
UniProt O88554: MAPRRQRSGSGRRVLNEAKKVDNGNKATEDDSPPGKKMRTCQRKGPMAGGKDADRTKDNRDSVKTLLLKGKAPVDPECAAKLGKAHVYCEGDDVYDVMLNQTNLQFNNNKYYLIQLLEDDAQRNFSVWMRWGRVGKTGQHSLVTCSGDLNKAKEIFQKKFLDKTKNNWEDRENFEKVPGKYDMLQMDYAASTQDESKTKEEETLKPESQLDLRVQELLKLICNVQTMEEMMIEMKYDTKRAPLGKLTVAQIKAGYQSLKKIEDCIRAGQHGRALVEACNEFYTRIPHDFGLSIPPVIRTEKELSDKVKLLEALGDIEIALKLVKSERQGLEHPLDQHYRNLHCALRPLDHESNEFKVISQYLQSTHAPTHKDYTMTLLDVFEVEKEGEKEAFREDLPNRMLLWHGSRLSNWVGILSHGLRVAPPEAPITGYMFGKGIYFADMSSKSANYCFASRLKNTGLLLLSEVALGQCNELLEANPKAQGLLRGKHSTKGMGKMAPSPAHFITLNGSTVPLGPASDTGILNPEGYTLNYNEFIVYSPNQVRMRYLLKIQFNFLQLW

Q: Which IC50 does the source give for O=c1[nH]nc2c3c(cccc13)N=C(CN1Cc3ccccc3C1)N2 [E7449, 8-(isoindolin-2-ylmethyl)-2,9-dihydro-3H-pyridazino[3,4,5-de]quinazolin-3-one] here?
A: 1.2 nM

Reference: publication PMC4747407 (Oncotarget, 2015)
